Measured values published in ChEMBL document CHEMBL2311405, “Synthesis and biological evaluation of indenoisoquinolines that inhibit both tyrosyl-DNA phosphodiesterase I (Tdp1) and topoisomerase I (Top1)” (J Med Chem, 2013).

Protein sequences, listed by entry. Tags and fused reporters are not part of them.
UniProt Q9NUW8, whole entry: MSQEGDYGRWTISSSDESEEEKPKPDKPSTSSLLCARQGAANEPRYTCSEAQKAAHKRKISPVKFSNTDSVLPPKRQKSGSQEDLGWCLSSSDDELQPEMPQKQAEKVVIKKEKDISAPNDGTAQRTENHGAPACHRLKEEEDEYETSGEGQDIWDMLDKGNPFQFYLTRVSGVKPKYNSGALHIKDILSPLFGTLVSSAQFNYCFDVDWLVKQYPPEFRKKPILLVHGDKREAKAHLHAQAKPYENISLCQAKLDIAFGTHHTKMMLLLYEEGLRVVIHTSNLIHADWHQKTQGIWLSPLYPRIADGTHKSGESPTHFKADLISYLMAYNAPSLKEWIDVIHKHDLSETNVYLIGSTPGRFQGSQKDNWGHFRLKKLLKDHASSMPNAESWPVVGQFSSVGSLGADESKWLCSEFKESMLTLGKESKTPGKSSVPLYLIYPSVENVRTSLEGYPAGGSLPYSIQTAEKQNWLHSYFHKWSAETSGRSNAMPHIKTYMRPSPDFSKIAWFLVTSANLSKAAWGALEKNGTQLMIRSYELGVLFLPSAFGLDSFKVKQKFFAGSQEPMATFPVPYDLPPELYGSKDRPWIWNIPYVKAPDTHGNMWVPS

Experiments:
[1] = molecular target: Tyrosyl-DNA phosphodiesterase 1 (Homo sapiens, UniProt Q9NUW8)
UACC-62 = assay: Growth inhibition of human UACC62 cells; type: functional
HOP-62 = assay: Growth inhibition of human HOP62 cells; type: functional
SF-539 = assay: Growth inhibition of human SF539 cells; type: functional

Q: Which IC50 [1] does the source give for NCCCn1c2c(c3ccc(N)cc3c1=O)C(=O)c1ccccc1-2 here?
A: 12 µM

Q: What does the source list for COc1ccc2c(c1)-c1c(c3ccc([N+](=O)[O-])cc3c(=O)n1CCCN)C2=O?
A: GI50 (UACC-62): 0.14 µM; GI50 (HOP-62): 0.14 µM

Q: Which GI50 (SF-539) does the source give for O=C1c2ccccc2-c2c1c1ccc([N+](=O)[O-])cc1c(=O)n2CCCO here?
A: 0.39 µM

Q: What about the IC50 [1] of the same compound?
A: > 111 µM

Q: CC(=O)Nc1ccc2c3c(n(CCCN)c(=O)c2c1)-c1ccccc1C3=O was tested. Which IC50 [1] did it give?
A: 18 µM

Q: For CC(=O)Nc1ccc2c3c(n(CCCO)c(=O)c2c1)-c1ccccc1C3=O, which IC50 [1] is on record?
A: > 111 µM

Q: Which IC50 [1] does the source give for COc1ccc2c(c1)C(=O)c1c-2n(CCCN)c(=O)c2cc([N+](=O)[O-])ccc12 here?
A: 11 µM

Q: Which IC50 [1] does the source give for CC(=O)Nc1ccc2c3c(n(CCCN)c(=O)c2c1)-c1ccccc1C3O (configuration not stated) here?
A: > 111 µM

Q: With COc1ccc2c(c1)C(=O)c1c-2n(CCCN)c(=O)c2cc(I)ccc12 as the compound, how does the IC50 [1] read?
A: 5.2 µM

Q: For COc1cccc2c1-c1c(c3ccc([N+](=O)[O-])cc3c(=O)n1CCCN)C2=O, which IC50 [1] is on record?
A: 5.8 µM

Q: CC(=O)Nc1ccc2c3c(n(CCCN=[N+]=[N-])c(=O)c2c1)-c1ccccc1C3=O was tested. Which IC50 [1] did it give?
A: > 111 µM
